Assay results taken from paper PMC4309955 (Scientific Reports, 2015).

Assays:
[1] = molecular target: T1, human AT1R (angiotensin II type 1 receptor) (Homo sapiens, UniProt P30556); test: inhibition of AngII-induced G protein activation, cell impedance; format: cell-based
[2] = molecular target: T1, human AT1R (angiotensin II type 1 receptor); test: inhibition of AngII-induced beta-arrestin activation, cell impedance; format: cell-based

pIC50 [1]: 11.70
pIC50 [2]: 11.22
Structure (SMILES): CCCc1nc2c(C)cc(-c3nc4ccccc4n3C)cc2n1Cc1ccc(-c2ccccc2C(=O)O)cc1 [Telmisartan]

pIC50: −log10 of the molar value.
